Source: US20170280728A1, “ANTIMICROBIAL COMPOSITIONS AND METHODS OF THEIR USE” (CMS TECHNOLOGY, INC.., priority 2014, published 2017)

System: General Bacteria (bacterial bird rinse)
Assay: General Bacteria Assay (Vivione RAPID-B Total Plate Count)
Assay type: cell-based

OCl
Average Live (5 ppm chlorine, pH at inoculation 6.57, Baseline 1562): 1452
Average Live (5 ppm chlorine, pH at inoculation 7.13, Baseline 408): 405
Average Live (10 ppm chlorine, pH at inoculation 6.65, Baseline 1562): 859
Average Live (10 ppm chlorine, pH at inoculation 7.11, Baseline 408): 387
Average Live (20 ppm chlorine, pH at inoculation 7.02, Baseline 408): 90
